Consider one substance from patent US7511119B2, “PRAME peptide analogues” (MannKind Corporation, priority 2005, dated 2009).

This assay concerns splenocytes. The assay is described as follows: Ex vivo IFN-gamma production after re-stimulation with wild-type NY-ESO-1157-165 (ELISA). Format: in vivo, mice. The note with it: 10 μM wild-type peptide, 3 and 6 days; FIG. 17. An excerpt:
Supernatants were harvested and the concentration of IFN-γ measured by ELISA.

With “C165V: NY-ESO-1 157-165 analog with C165V substitution (SLLMWITQV; UniProt P78358 157-165, looked up, variant C165V) [Peptide C165V]”, the “IFN-gamma production upon ex vivo re-stimulation with wild-type peptide” value is given as “failed to induce increased capability”.
